{"source": "patent US3962447A", "about": "“Novel pro-drug derivatives of pyridinium aldoxime type cholinesterase reactivators and method of using same” (dated 1976)", "key": {"[1]": {"test": "concentrations in blood after I.V. administration and elimination half-life in Beagle dogs", "details": "for distribution in blood: in words"}, "[2]": {"details": "cited from earlier work"}, "[3]": {"details": "cited from earlier work", "remark": "listed apart in the source"}, "[4]": {"details": "rat, within ten minutes after administration; cited from earlier work"}, "[5]": {"system": "toxic effect of a nerve agent, such as G.B. (Sarin)", "details": "man, cited from earlier work"}, "[6]": {"system": "patients intoxicated by Parathion", "details": "cited from earlier work"}, "[7]": {"system": "lethal effects of paraoxon", "details": "test animals, in words; cited from earlier work"}, "[8]": {"system": "cholinesterase in the brain", "details": "100 mg/kg I.P., rat, after intoxication in vivo by Sarin; cited from earlier work"}, "[9]": {"test": "urinary analysis after parenteral administration", "details": "conclusion from urinary recovery, in words"}, "cholinesterase": {"system": "cholinesterase", "test": "in vivo cholinesterase reactivation: protection of mice against phospholine iodide toxicity", "details": "DPAM-HCl 50 mg/kg alone, no phospholine iodide, 0.2 cc saline"}, "[10]": {"test": "pKa by titration and U.V. methods", "details": "for pKa of the tertiary amine: titration and U.V. methods, hydrochloride"}}}
{"smiles": "C[n+]1ccccc1/C=N/O", "values": [{"measurement": "distribution in blood", "setting": "[1]; Beagle dogs", "result": "distributed only in the plasma, practically none of the drug being observed in the blood cells or blood proteins"}, {"measurement": "amount of absorption into the bloodstream, oral administration", "setting": "[2]", "result": "20 to 30", "unit": "%"}, {"measurement": "binding to human serum protein", "setting": "[3]; in words", "result": "not found to be bound appreciably"}, {"measurement": "entry into the erythrocytes", "setting": "[3]; in words", "result": "nor for that matter, to enter the erythrocytes"}, {"measurement": "compound excreted during the first six hours", "setting": "[3]; man, intravenous 15 mg/kg", "result": "Approximately 80%"}, {"measurement": "time in which most of the unchanged oxime was found in the urine", "setting": "[3]; man, intravenous 15 mg/kg", "result": "within the first thirty minutes"}, {"measurement": "crossing of the blood-brain barrier", "setting": "[4]", "result": "some crossing of the blood-brain barrier does occur"}]}
{"smiles": "C[n+]1ccccc1C=NO.[Cl-]", "values": [{"measurement": "corresponding intravenous dose of 2-PAM chloride", "setting": "[5]; as the chloride, calculated from oxime content (1.4 g iodide = 1 g chloride)", "result": "10 to 20", "unit": "mg/kg"}]}
{"smiles": "C[n+]1ccccc1C=NO", "values": [{"measurement": "recovery of consciousness", "setting": "[6]; patients intoxicated by Parathion", "result": "rapid recovery of consciousness"}, {"measurement": "anti-convulsant action", "setting": "[6]; some patients", "result": "significant anti-convulsant action in some patients"}, {"measurement": "protection from the lethal effects of paraoxon", "setting": "[7]", "result": "still protected from the lethal effects of paraoxon"}, {"measurement": "reactivated cholinesterase in the brain", "setting": "[8]", "result": 4, "unit": "%"}]}
{"smiles": "C[n+]1ccccc1C=NO.[I-]", "values": [{"measurement": "intravenous dose required to alleviate the toxic effect of a nerve agent", "setting": "[5]; as the iodide", "result": "14 to 28", "unit": "mg/kg"}]}
{"smiles": "CN1CC=CC=C1C=NO.Cl", "values": [{"measurement": "metabolism of the pro-drug form", "setting": "[9]", "result": "transferred into 2-PAM without any other significant secondary metabolic pathways"}, {"measurement": "SURVIVED", "setting": "cholinesterase", "result": "10/10"}, {"measurement": "distribution in blood", "setting": "[1]; Beagle dogs", "result": "distributed mainly in the blood cells and blood proteins"}, {"measurement": "amount in blood cells and proteins relative to plasma", "setting": "[1]; DPAM, Beagle dogs", "result": "twice as much"}, {"measurement": "excretion (elimination) half-life (t 1/2), in words", "setting": "[1]; compared with 2-PAM", "result": "substantially increased"}, {"measurement": "pKa of the oxime moiety", "setting": "[10]; U.V.", "result": "about 10.5"}, {"measurement": "pKa of the tertiary amine", "setting": "[10]; listed as 1-methyl-1,6-dihydropyridine-2-aldoxime hydrochloride", "result": 6.32}, {"measurement": "pKa of the tertiary amine", "setting": "[10]; listed as pro-2-PAM", "result": 6.32}]}
